As a reminder, the EC50 is the concentration at which the effect is half-maximal.

EC50 data for seven molecules are collected here from patent US20220289848A1 (published 2022).

B1: PDL1a-E-LC (bispecific antibody)
heavy: not shown
light: EIVLTQSPATLSLSPGERATLSCRASENVGTYISWYQQKPGQAPRLLIYGASNRYTGIPARFSGSGSGTDFTLTISSLEPEDFAVYYCGESYGHLYTFGGGTKVEIKRTVAAPSVFIFPPSDEQLKSGTASVVCLLNNFYPREAKVQWKVDNALQSGNSQESVTEQDSKDSTYSLSSTLTLSKADYEKHKVYACEVTHQGLSSPVTKSFNRGECEPKSSDKTHTSPPSPEVQLVESGGGLVQPGGSLRLSCAASGRTFVTYGMGWFRQAPGKGREFVSAISWSGSMTSYGDSVKGRFTISRDNAKNTLYLQMNSLRPEDTAVYYCAAALGAVVYTTREPYTYWGQGTLVTVSS
B2: PDL1b-E-LC (bispecific antibody)
heavy: not shown
light: EIVLTQSPATLSLSPGERATLSCRASENVGTYISWYQQKPGQAPRLLIYGASNRYTGIPARFSGSGSGTDFTLTISSLEPEDFAVYYCGESYGHLYTFGGGTKVEIKRTVAAPSVFIFPPSDEQLKSGTASVVCLLNNFYPREAKVQWKVDNALQSGNSQESVTEQDSKDSTYSLSSTLTLSKADYEKHKVYACEVTHQGLSSPVTKSFNRGECEPKSSDKTHTSPPSPEVQLVESGGGLVQPGGSLRLSCAASGRTFVTYGMGWFRQAPGKGREFVSAISWSGSSTSYGDSVKGRFTISRDNAKNTLYLQMNSLRPEDTAVYYCAAALGAVVYTTREPYTYWGQGTLVTVSS
B3: PDL1a-G15-LN (bispecific antibody)
heavy: not shown
light: EVQLVESGGGLVQPGGSLRLSCAASGRTFVTYGMGWFRQAPGKGREFVSAISWSGSMTSYGDSVKGRFTISRDNAKNTLYLQMNSLRPEDTAVYYCAAALGAVVYTTREPYTYWGQGTLVTVSSGGGGSGGGGSGGGGSEIVLTQSPATLSLSPGERATLSCRASENVGTYISWYQQKPGQAPRLLIYGASNRYTGIPARFSGSGSGTDFTLTISSLEPEDFAVYYCGESYGHLYTFGGGTKVEIKRTVAAPSVFIFPPSDEQLKSGTASVVCLLNNFYPREAKVQWKVDNALQSGNSQESVTEQDSKDSTYSLSSTLTLSKADYEKHKVYACEVTHQGLSSPVTKSFNRGEC
B4: PDL1a-E-LN (bispecific antibody)
heavy: not shown
light: EVQLVESGGGLVQPGGSLRLSCAASGRTFVTYGMGWFRQAPGKGREFVSAISWSGSMTSYGDSVKGRFTISRDNAKNTLYLQMNSLRPEDTAVYYCAAALGAVVYTTREPYTYWGQGTLVTVSSEPKSSDKTHTSPPSPEIVLTQSPATLSLSPGERATLSCRASENVGTYISWYQQKPGQAPRLLIYGASNRYTGIPARFSGSGSGTDFTLTISSLEPEDFAVYYCGESYGHLYTFGGGTKVEIKRTVAAPSVFIFPPSDEQLKSGTASVVCLLNNFYPREAKVQWKVDNALQSGNSQESVTEQDSKDSTYSLSSTLTLSKADYEKHKVYACEVTHQGLSSPVTKSFNRGEC
B5: PDL1b-E-LN (bispecific antibody)
heavy: not shown
light: EVQLVESGGGLVQPGGSLRLSCAASGRTFVTYGMGWFRQAPGKGREFVSAISWSGSSTSYGDSVKGRFTISRDNAKNTLYLQMNSLRPEDTAVYYCAAALGAVVYTTREPYTYWGQGTLVTVSSEPKSSDKTHTSPPSPEIVLTQSPATLSLSPGERATLSCRASENVGTYISWYQQKPGQAPRLLIYGASNRYTGIPARFSGSGSGTDFTLTISSLEPEDFAVYYCGESYGHLYTFGGGTKVEIKRTVAAPSVFIFPPSDEQLKSGTASVVCLLNNFYPREAKVQWKVDNALQSGNSQESVTEQDSKDSTYSLSSTLTLSKADYEKHKVYACEVTHQGLSSPVTKSFNRGEC
B6: PDL1c-E-LC (bispecific antibody)
heavy: not shown
light: EIVLTQSPATLSLSPGERATLSCRASENVGTYISWYQQKPGQAPRLLIYGASNRYTGIPARFSGSGSGTDFTLTISSLEPEDFAVYYCGESYGHLYTFGGGTKVEIKRTVAAPSVFIFPPSDEQLKSGTASVVCLLNNFYPREAKVQWKVDNALQSGNSQESVTEQDSKDSTYSLSSTLTLSKADYEKHKVYACEVTHQGLSSPVTKSFNRGECEPKSSDKTHTSPPSPEVQLVESGGGLVQPGGSLRLSCAASGRTFITYAIGWFRQAPGKGREFVSAISWSGSMTSYADSVKGRFTISRDNAKNTLYLQMNSLRPEDTAVYYCAAHRGAIAPIAQSVYTNWGQGTLVTVSS
B7: PDL1a-G15-LC (bispecific antibody)
heavy: not shown
light: EIVLTQSPATLSLSPGERATLSCRASENVGTYISWYQQKPGQAPRLLIYGASNRYTGIPARFSGSGSGTDFTLTISSLEPEDFAVYYCGESYGHLYTFGGGTKVEIKRTVAAPSVFIFPPSDEQLKSGTASVVCLLNNFYPREAKVQWKVDNALQSGNSQESVTEQDSKDSTYSLSSTLTLSKADYEKHKVYACEVTHQGLSSPVTKSFNRGECGGGGSGGGGSGGGGSEVQLVESGGGLVQPGGSLRLSCAASGRTFVTYGMGWFRQAPGKGREFVSAISWSGSMTSYGDSVKGRFTISRDNAKNTLYLQMNSLRPEDTAVYYCAAALGAVVYTTREPYTYWGQGTLVTVSS

For the experiment, the target named is CD47 expressed on CHO-K1 cells (UniProt Q08722 19-323). In words: FACS. On the technique in general: A flow cytometer gives signals particle by particle.
Regarding B1, the response was half-maximal at 366 pM (EC50).
Next, B2: 305 pM.
Molecule B3 showed an EC50 of 1060 pM. Compared with the last molecule, the EC50 is about 3.5-fold higher.
With B4, the EC50 worked out at 1320 pM.
B5 showed an EC50 of 1010 pM. This EC50 and that of the molecule before are within 1.5-fold of each other.
B6 came in with an EC50 of 286 pM.
As to B7, the EC50 is 349 pM.
